# Test results taken from US20170198353A1, “KRAS MUTATIONS AND RESISTANCE TO ANTI-EGFR TREATMENT” (Memorial Sloan- Kettering Cancer Institute, priority 2012, published 2017).
# Key:
# [1] = system: phosphorylation of MEK and ERK; assay: Western blot analysis of phospho-MEK1/2 and phospho-ERK1/2 in cetuximab-resistant DiFi cells; format: cell-based, human; settings: DiFi-R cells with KRAS amplification, Western blot (FIG. 1d)
# Experimental: For immunoblot analysis, total cellular proteins were extracted by solubilizing the cells in boiling SDS buffer. Western blot detection was done by enhanced chemiluminescence. The analysis of KRAS activation was performed by immunoprecipitation assay with GST-Raf1-RBD. Real time PCR was performed using an ABI PRISM® 7900HT apparatus (Applied Biosystems). KRAS protein expression was evaluated by immunohistochemistry performed on 3 μm thick tissue sections using a specific KRAS (F234) antibody (SC-30, mouse monoclonal IgG2a Santa Cruz Biotechnology). […] FISH experiments were conducted according with the histology FISH accessory kit (Dako, Glostrup, Danmark). Data are presented as the mean±SD and n=3. Statistical significance was determined by paired Student's t test. P<0.05 was considered statistically significant.
# Prior to biochemical analysis, all cells were grown in their specific media supplemented with 5% FBS. Total cellular proteins were extracted by solubilizing the cells in boiling SDS buffer (50 mM Tris-HCl, pH 7.5, 150 mM NaCl, and 1% SDS). Western blot detection was done by enhanced chemiluminescence (GE Healthcare). […]
# [2] = system: DiFi cells infected with a KRAS lentivirus; assay: Viability of DiFi cells with ectopic overexpression of wild type KRAS; format: cell-based, human; settings: ectopic overexpression of wild type KRAS in DiFi (FIG. 1e, 1f)
# Experimental: (§1) Cetuximab was obtained from Pharmacy at Niguarda Ca′ Granda Hospital, Milan, Italy. AZD6244 and GSK1059615 were purchased from Sequoia Chemicals (Pangbourne, UK) and Selleck Chemicals (Houston, USA), respectively. Cell lines were seeded in 100 μi medium at appropriate density (5×10^4, 1.5×10^4 for DiFi and Lim1215 cells, respectively) in 96-well plastic culture plates. After serial dilutions, drugs in serum free medium were added to cells and medium-only containing wells were added as controls. Plates were incubated at 37° C. in 5% CO2 for 72-168 h, after which cell viability was assessed by ATP content using the CellTiter-Glo® Luminescent Assay (Promega Madison, Wis., USA).
# [3] = system: DiFi-R cells (KRAS amplification); assay: Drug viability assay (ATP content), cetuximab-resistant DiFi cells; format: cell-based, human; settings: DiFi-R cells with KRAS amplification (FIG. 1a)
# Experimental: (§2) Cell viability was assessed by ATP content. Cells were seeded in 100 μl medium in 96-well plastic culture plates. The experimental procedures for knock in of cancer mutations, the vectors, AA V production, cell infection and screening for recombinants have already been described elsewhere.
# (§3) DiFi cells were cultured in F12 medium (Invitrogen) supplemented with 5% FBS and Lim1215 cells were cultured in RPMI-1640 medium (Invitrogen) supplemented with 5% FBS and Insulin (1 μg/ml). […] For Lim1215 both protocols required at least 3 months' drug treatment. The Lim1215 parental cell line had been described previously (Whitehead, R. H., Macrae, F. A., St John, D. J. & Ma, J. A colon cancer cell line (LIM1215) derived from a patient with inherited nonpolyposis colorectal cancer. J Natl Cancer I 74, 759-765 (1985)) and was obtained from Prof Robert Whitehead, Vanderbilt University, Nashville, with permission from the Ludwig Institute for Cancer Research, Zurich, Switzerland. The genetic identity of the cell lines used in this study was confirmed by STR profiling (Cell ID, Promega)
# (§4) Cetuximab was obtained from Pharmacy at Niguarda Ca′ Granda Hospital, Milan, Italy. […] Plates were incubated at 37° C. in 5% CO2 for 72-168 h, after which cell viability was assessed by ATP content using the CellTiter-Glo® Luminescent Assay (Promega Madison, Wis., USA).
# Lim1215 E4.1 cells = assay: Proliferation of Lim1215 KRAS WT subclone E4.1; format: cell-based, human; settings: Lim1215 KRAS WT subclone E4.1 (FIG. 9C)
# Experimental: As schematized in FIG. 9, two successive dilution cloning experiments were performed and the derivative cells (hereafter referred to as E4.1) were confirmed as KRAS wild-type by both mass spectrometry (MS) based genotyping and by 454 analysis. […] Cells were collected during intermediate passages and subjected to MS based genotyping and/or 454 analysis (FIG. 9a).
# as §1
# [4] = system: patients with advanced CRC; settings: cited from earlier work
# Lim1215 cells = assay: Drug viability assay (ATP content), parental Lim1215 cells; format: cell-based, human; settings: one week, ATP assay (FIG. 5a)
# Experimental: as §2, §3, §4
# DiFi cells = assay: Drug viability assay (ATP content), parental DiFi cells; format: cell-based, human; settings: one week, ATP assay (FIG. 5a)
# Experimental: as §2, §3, §4
substance,measurement,setting,value
cetuximab,phosphorylation of MEK and ERK,[1],partially abrogate
same,resistance to cetuximab,[2],conferred resistance
same,induction of growth arrest,[3],unable to induce growth arrest
same,proliferation under cetuximab treatment,Lim1215 E4.1 cells,impaired
same,"time to emergence of secondary resistance (disease progression), radiological evaluation",[4],9-18 months
same,sensitivity to cetuximab (cell viability),Lim1215 cells,similarly sensitive
same,sensitivity to EGFR inhibition (cell viability),DiFi cells,highly sensitive
